Data on one substance can be found in patent publication US20240352072.

The series deals with ACE2me2 di-methylated ACE2 peptide QAKTFLD{Lys(Me2)}FNHEAED.

Turning to recombinant LSD1 protein, the “in vitro LSD1 activity assay (demethylation reaction)” value was “LSD1 efficiently de-methylated the ACE2 peptide at lysine 31”.
